Reference: patent US6380248B1, “Metal-thiols as immunomodulating agents” (Winthrop University Hospital, priority 1998, dated 2002)

Tested on: mice
Assay: Toxicity / lethality to mice

## bismuth:dimercaprol
bismuth:thiol molar ratio
  molar ratio of greatest toxicity to mice: most toxic to mice at a 1:2 molar ratio
Given intraperitoneally to mice
  less toxic than bismuth or dimercaprol alone: 4 to 6 fold
